Protein sequences, listed by entry. Tags and fused reporters are not part of them.
UniProt P08183, whole entry: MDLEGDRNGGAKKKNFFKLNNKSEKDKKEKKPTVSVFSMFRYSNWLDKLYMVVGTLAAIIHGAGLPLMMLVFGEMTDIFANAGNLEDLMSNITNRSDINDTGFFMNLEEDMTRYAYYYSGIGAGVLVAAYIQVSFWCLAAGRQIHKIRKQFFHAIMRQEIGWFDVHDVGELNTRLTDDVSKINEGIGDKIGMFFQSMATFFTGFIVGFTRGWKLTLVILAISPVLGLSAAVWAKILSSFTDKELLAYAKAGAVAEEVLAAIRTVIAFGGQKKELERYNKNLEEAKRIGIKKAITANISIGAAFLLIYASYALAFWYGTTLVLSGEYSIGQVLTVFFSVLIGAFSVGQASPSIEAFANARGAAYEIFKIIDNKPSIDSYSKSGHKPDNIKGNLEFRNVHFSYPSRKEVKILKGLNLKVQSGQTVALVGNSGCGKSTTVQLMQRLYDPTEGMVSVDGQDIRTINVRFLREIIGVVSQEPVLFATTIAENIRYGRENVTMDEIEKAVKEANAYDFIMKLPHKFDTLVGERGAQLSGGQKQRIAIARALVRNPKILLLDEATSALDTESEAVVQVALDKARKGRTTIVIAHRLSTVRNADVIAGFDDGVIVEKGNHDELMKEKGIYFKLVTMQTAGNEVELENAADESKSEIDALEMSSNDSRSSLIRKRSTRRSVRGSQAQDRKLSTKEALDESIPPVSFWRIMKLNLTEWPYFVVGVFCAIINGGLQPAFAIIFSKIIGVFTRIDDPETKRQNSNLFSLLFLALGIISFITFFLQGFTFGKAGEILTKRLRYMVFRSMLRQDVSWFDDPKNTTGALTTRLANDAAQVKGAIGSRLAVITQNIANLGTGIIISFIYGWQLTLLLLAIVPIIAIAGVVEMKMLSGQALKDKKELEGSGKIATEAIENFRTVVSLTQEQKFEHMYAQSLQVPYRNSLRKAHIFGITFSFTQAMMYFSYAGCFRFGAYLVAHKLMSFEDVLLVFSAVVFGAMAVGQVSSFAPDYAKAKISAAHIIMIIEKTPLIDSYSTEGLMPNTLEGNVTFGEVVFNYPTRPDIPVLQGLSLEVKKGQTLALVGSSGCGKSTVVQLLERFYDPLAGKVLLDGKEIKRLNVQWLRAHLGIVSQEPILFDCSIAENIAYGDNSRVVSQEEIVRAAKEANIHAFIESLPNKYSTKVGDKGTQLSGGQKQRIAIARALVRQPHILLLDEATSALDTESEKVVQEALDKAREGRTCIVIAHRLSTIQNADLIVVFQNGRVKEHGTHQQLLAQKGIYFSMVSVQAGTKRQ

According to PMC5620620, “Comparison of In Vitro Assays in Selecting Radiotracers for In Vivo P-Glycoprotein PET Imaging” (Pharmaceuticals, 2017):

Target: P-gp (Homo sapiens, UniProt P08183)
Assay: Bidirectional transport of tritiated compounds in MDCKII-MDR1 cells
Conditions: with ketoconazole 25 µM or tariquidar 10 µM, test compound 0.01 µM, [3H]digoxin 0.05 µM

C[C@H]1O[C@@H](O[C@H]2[C@@H](O)C[C@H](O[C@H]3[C@@H](O)C[C@H](O[C@H]4CC[C@@]5(C)[C@H](CC[C@@H]6[C@@H]5C[C@@H](O)[C@]5(C)[C@@H](C7=CC(=O)OC7)CC[C@]65O)C4)O[C@@H]3C)O[C@@H]2C)C[C@H](O)[C@@H]1O [[^3H]Digoxin, digoxin]
A → B and B → A transport values due to inhibition: < 3
